{"source": "patent EP4744680A1", "about": "“TARGETED CHEMICAL DRUG AND PREPARATION METHOD THEREFOR, PHARMACEUTICAL COMPOSITION, AND USE OF TARGETED CHEMICAL DRUG” (Bai Yao Zhi Da (Beijing) Nanobio Technology Co., Ltd., priority 2023, dated 2025)", "key": {"A549 lung carcinoma": {"test_system": "A549 lung carcinoma", "assay": "In-vivo efficacy study in the A549 mouse lung carcinoma model (drug of Example 3)", "set-up": "species or system mouse (BALB/c-nu)", "details": "Day 25; 0.08mg i.v. (tail vein) twice weekly for 5 weeks", "protocol": "• Species/strain: BALB/c nude (BALB/c-nu) • Age: 6-7 weeks • Sex: Male • Body weight: 16-18 g\nThe day of implantation was designated as Day 0 (D0).When the tumor volume reached approximately 100.0 mm^3 (D5), animals with poor tumor take were excluded, the remaining animals were randomized by tumor volume, and dosing commenced on the day of randomization. 2).Dosing regimen: Table 31\n(§1) Tumor size is measured twice per week using a vernier caliper. The long diameter (a) and short diameter (b) are recorded. Tumor volume is calculated as: V=0.5×a×b^2.\n(§2) RTV = Vt /V0 , [formula] where V0 is the tumor volume at grouping/first dosing (D0), and Vt is the tumor volume at each measurement time point."}, "HepG2 liver cancer": {"test_system": "HepG2 liver cancer", "assay": "In-vivo efficacy study in the HepG2 mouse liver cancer model (drug of Example 6)", "set-up": "species or system mouse (BALB/cAnSlacNifdc-nu)", "details": "Day 17; 6 mg/kg (0.12 mg/mouse) i.v. (tail vein) once weekly, 3 administrations", "source_text": "• Species/strain: BALB/cAnSlacNifdc-nu • Sex: Male • Body weight: 16-18 g\n1).Inoculation and grouping: For the HepG2 mouse liver cancer model, male BALB/cAnSlacNifdc-nu nude mice, weighing 16.0-18.0 g, were used.Under aseptic conditions, HepG2 tumor tissue was excised and cut into 2.0mm×2.0mm×2.0mm tumor blocks, which were uniformly implanted subcutaneously into the left axillary dorsal region of nude mice. The day of implantation was designated as Day 0 (D0).When the tumor volume reached approximately 250.0 mm^3 (D7), animals were randomized by tumor volume into three groups: A (control group), B, and C (treatment groups), with 8 animals per group.On the day of randomization, all animals began intravenous (tail-vein) dosing once weekly for a total of 3 administrations. 2.Dosing regimen: Table 37\nas §1, §2\n6).Tumor weight: At the end of the study (D23), the remaining animals were euthanized by cervical dislocation. Tumors were excised, weighed, and photographed."}}}
{"smiles": "COc1cccc2c1C(=O)c1c(O)c3c(c(O)c1C2=O)C[C@@](O)(C(=O)CO)C[C@@H]3O[C@H]1C[C@H](N)[C@@H](O)[C@H](C)O1", "note": "[Epirubicin drug substance (API), Epirubicin]", "values": [{"measurement": "Tumor growth inhibition rate (TGI, %) at different days post-inoculation", "setting": "A549 lung carcinoma", "result": 28.23, "unit": "%"}, {"measurement": "Tumor growth inhibition rate (TGI, %) at different days post-inoculation", "setting": "HepG2 liver cancer", "result": 24.38, "unit": "%"}]}
